Data: patent publication US12083113B2, “Use of neuronal nitric oxide synthase inhibitors for immunotherapy in melanoma patients” (Northwestern University, priority 2018, dated 2024)

Tests used:
STAT3 = assay: Western blot of STAT3 and phospho-STAT3 in A375 cells; assay type: cell-based, human; details: A375 cells co-treated with IFN-γ; MAC-3-190 at 3 μM
Procedure: (§1) FIG. 3. A) Effects of IFN-γ on STAT3 and phosphor-STAT3 expression levels in melanoma. A375 cells were treated with 100 units/mL and 250 units/mL of IFN-γ or IFN-α for 24 hours; whole cell lysates and nuclear extracts were used for Western blot analysis to detect STAT3 and pSTAT3 respectively. […]. Protein isolation and Western blotting. All samples were kept at 4° C. unless otherwise noted. Whole cell lysates were collected by incubating cell suspensions in 1× lysis buffer (9803S; Cell Signaling, Danvers, MA) with 1% protease inhibitor cocktail (PIC) for 15 minutes then lysed via sonication at 40% amplitude with 15 seconds on and 15 seconds off for 1 minute. Protein samples were isolated using centrifugation at 14,000 g^−1 for 10 minutes at 4° C.
Nuclear and cytosolic protein extraction is described elsewhere (84). […]
(§2) Equal amounts of protein, as detected by Bradford assay, were loaded and resolved on 7.5% SDS-polyacrylamide gels, then transferred to Immobilon-P^SQ polyvinylidene difluoride (PVDF) membranes (ISEQ00010; Merck KGaA, Darmstadt, Germany). […] Labeled bands were detected using SuperSignal horseradish peroxidase chemiluminescence reagents (1859674; 1859675; Thermo Fisher Scientific, Waltham, MA) and images were captured and analyzed using the Bio-Rad ChemiDoc XRS^+ System.

STAT1 = assay: Western blot of STAT1 in A375 cells; assay type: cell-based, human; details: A375 cells co-treated with IFN-γ; MAC-3-190 at 3 μM, 48 hours
Procedure: as §1, §2

[1] = test system: A375 human melanoma xenograft; assay: A375 melanoma xenograft, HH044 20 mg/kg (Example 2)

SMILES	induction/activation of STAT3 by IFN-γ (STAT3)	induction/activation of STAT1 by IFN-γ (STAT1)	tumor growth of human melanoma in vivo [1]
N=C(Nc1ccc(CCNCc2cccc(NC(=N)c3cccs3)c2)cc1)c1cccs1 [HH044]	abolished	abolished	inhibited
CNCc1cccc(CCc2ccc3c(C)cc(N)nc3c2)c1 [MAC-3-190]	effectively diminished	inhibited	–
